Measured values published in patent publication US7144865B2, “Compositions and methods for treating obesity” (The United States of America as represented by the …, priority 2003, dated 2006).

Assay: Body weight and growth rate of G-K rats treated with zinc or zinc plus CHP (FIGS. 1, 2, 11-13)
Format: in vivo
Details: 10-month old G-K rats; 10 mg/L zinc with and without 1.0 mg/L CHP for 3 weeks; FIG. 1
Description: I believe that CHP is effective in maintaining body weight control even after the cessation of the treatment.

[Zn] [zinc]
body weights compared to controls: significantly decreased
